Experiment [1] concerns the target T1, Mus musculus QSOX1 (recombinant MmQSOX1) (Mus musculus).
T1 chain: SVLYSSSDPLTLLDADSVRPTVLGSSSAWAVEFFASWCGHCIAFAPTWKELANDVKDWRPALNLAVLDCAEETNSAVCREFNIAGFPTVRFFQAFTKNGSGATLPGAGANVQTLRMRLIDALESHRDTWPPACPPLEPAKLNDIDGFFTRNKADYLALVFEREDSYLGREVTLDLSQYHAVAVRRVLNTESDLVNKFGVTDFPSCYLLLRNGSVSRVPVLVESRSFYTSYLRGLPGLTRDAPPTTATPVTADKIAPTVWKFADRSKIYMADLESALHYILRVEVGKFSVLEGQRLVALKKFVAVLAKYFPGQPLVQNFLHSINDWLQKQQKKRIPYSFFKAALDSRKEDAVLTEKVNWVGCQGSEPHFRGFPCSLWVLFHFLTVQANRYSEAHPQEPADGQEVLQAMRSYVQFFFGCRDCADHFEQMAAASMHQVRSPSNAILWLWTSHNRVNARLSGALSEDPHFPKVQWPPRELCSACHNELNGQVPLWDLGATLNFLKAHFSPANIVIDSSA
The experiment in a line: oxygen consumption assay on DTT, fitted to a tight-binding inhibition model. On the procedure:
(§1) MmQSOX1 inhibition by MAb492gen was next quantified and compared to inhibition by the natural antibody MAb316.1. In one assay, MmQSOX1 activity was measured by the number of free thiols remaining at the end of the oxidation reaction of denatured and reduced RNase A. Various MAb492gen concentrations were scanned against two MmQSOX1 concentrations. In both cases the IC₅₀ values were similar to the MmQSOX1 concentration used in the assay (FIG. 3B), indicating tight-binding inhibition. In a second assay MmQSOX1 catalytic activity on DTT was measured using the oxygen consumption assay, providing data that were fitted to a model of tight-binding inhibition [Bieth, J. G. (1995) Methods Enzymol. 248: 59-84] to yield an inhibitory constant (Kᵢ) of 2.2±0.5 nM (FIG. 3C and Table 4, below).

For experiment [2], the target named is T1, Mus musculus QSOX1 (recombinant MmQSOX1). The experiment in a line: oxygen consumption assay on DTT, 50 nM enzyme, fitted to a tight-binding inhibition model. On the procedure:
as §1
(§2) A QSOX1-targeting antibody with dual species specificity, i.e., that inhibits HsQSOX1 as well as MmQSOX1, would be a valuable tool that could be used in animal models, and in turn, with minimal engineering, in clinical trials. […] In contrast, though no selection for binding of HsQSOX1 was performed during its development, MAb492gen retained tight-binding activity against HsQSOX1, having a Kᵢ value of 1.6±0.6 nM for HsQSOX1 (FIG. 7B and Table 4, above) compared to 0.9±0.1 nM previously measured for MAb492.1 [Grossman I. et al. (2013), supra].

The target of experiment [3] is T2, Homo sapiens QSOX1 (recombinant HsQSOX1) (Homo sapiens, UniProt O00391 33-546, limits assumed).
T2 construct: Recombinant enzyme expressed as in Grossman et al. 2013; also called human QSOX1
T2 sequence: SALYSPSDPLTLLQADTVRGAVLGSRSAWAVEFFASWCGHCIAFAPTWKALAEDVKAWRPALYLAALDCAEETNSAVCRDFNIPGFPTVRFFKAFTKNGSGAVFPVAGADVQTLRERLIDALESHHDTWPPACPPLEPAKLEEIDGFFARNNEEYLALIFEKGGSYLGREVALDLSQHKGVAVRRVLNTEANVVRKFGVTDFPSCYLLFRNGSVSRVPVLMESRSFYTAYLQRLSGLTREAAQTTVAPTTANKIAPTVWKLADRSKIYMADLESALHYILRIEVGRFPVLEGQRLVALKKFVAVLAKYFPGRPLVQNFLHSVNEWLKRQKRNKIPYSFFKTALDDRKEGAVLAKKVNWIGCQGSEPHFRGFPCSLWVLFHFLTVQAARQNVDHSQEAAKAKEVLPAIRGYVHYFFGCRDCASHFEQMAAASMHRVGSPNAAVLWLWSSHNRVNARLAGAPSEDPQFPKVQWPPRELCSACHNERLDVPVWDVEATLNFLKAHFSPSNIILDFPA
The description is as above. On the procedure: as §1, §2

The target in another experiment is T3, biotinylated MmQSOX1Trx (Mus musculus, UniProt Q8BND5 36-275, Biotin on the lysine of the C-terminal AviTag (tag not in the letters); in early screening rounds pre-loaded with streptavidin-APC).
T3 construct: Used for yeast-surface display; in the first screening rounds pre-loaded with streptavidin-APC in a 1:4 molar ratio; also called MmQSOX1Trx with AviTag; not shown: purification tag
T3 sequence: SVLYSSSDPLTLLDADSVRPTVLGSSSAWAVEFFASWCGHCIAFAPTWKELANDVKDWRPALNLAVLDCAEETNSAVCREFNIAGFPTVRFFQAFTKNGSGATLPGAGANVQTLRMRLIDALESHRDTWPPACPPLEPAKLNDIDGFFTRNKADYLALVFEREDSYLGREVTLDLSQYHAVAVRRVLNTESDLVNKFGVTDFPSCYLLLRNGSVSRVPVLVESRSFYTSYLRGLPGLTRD
The experiment in a line: yeast-surface display flow cytometry, mean APC fluorescence against MmQSOX1Trx concentration, binding isotherm. The procedure: FIGS. 3K-L illustrate histograms of red fluorescence (APC bound to streptavidin) representing MmQSOX1Trx binding at various concentrations to the surface of yeast displaying scFv492gen (FIG. 3K). […] For each histogram in FIG. 3K, the mean APC fluorescence was measured and plotted as function of MmQSOX1Trx concentration.
The scFv492.1 construct, without the His-tag and thrombin cleavage site [Grossman I. et al. (2013), supra], was cloned between the NdeI and BamHI sites in the yeast display plasmid pETCON [Fleishman S. J. et al. (2011) Science 332: 816-821]. Mutants of scFv492.1 were prepared on the basis of this plasmid by in vivo recombination in EBY 100 yeast using the LiAc method. Yeast growth and induction of scFv expression were carried out as previously described [Chao G. et al. (2006) Nat. Protoc. 1: 755-768], except that for induction 10 g raffinose per liter were added to the media and the cultures were grown for 16 hours at 20° C. Yeast were labeled with anti-cMyc (Santa Cruz Biotechnology) at a dilution 1:50 to monitor scFv expression, and with biotinylated MmQSOX1Trx (for concentrations see Table 3, below) for 45 minutes. […] Display of scFv clones and MmQSOX1Trx binding was monitored by Alexa 488 and APC fluorescence, respectively, using an Accuri C6 flow cytometer. […]

B1: MAb316.1 (antibody, V domains shown)
VH: QVQLQQSGPELVKPGASVKISCKASGYSFTSYYIHWVKQRPGQGLEWIGWIYPGSYNTEYSEKFKGKATLTADTSSSTAYMQLSSLTSEDSAVYYCARSEDWFAYWGQGTLVTVS
VL: QIVLTQSPAIMSASPGEKVTISCSASSSVSYMYWYHQKPGSSPKPWIYRTSNLASGVPARFSGSGSGTSYSLTISSMEAEDAATYYCQQYHSYPLTFGAGTKLELK
notes: Hybridoma antibody from QSOX1 knock-out mice immunised with MmQSOX1
In the case of B1, the inhibitory constant (Ki) in experiment [1] was determined as 16 nM.

B2: MAb492gen (antibody, V domains shown)
VH: QVQLKQSGPGLVAPSQSLSITCTVSGFSLTGYSVIWVRQSPGKGLEWLGMIWGDGRTEYKSALKSRLSITKDNSKSQVFLKMNSLQTDDTARYFCASDSMDPGSFAYWGQGTLVTVSA
VL: DVVMTQTHKFMSTSVGDRVSITCKASQDVSGAVAWYQQKSGQSPKLLISMASQRYTGVPDRFTGSGSGTDFTFTISSVQAEDLAVYYCQQHYAIPLTFGAGTKLELK
notes: Recombinant full-length antibody with the variable regions of scFv492gen in human IgG1 expression vectors, made in HEK 293T cells
With B2, the Ki in experiment [2] worked out at 2.2 nM; in experiment [3], 1.6 nM.

B3: scFv492gen (scFv, V domains shown)
VH: QVQLKQSGPGLVAPSQSLSITCTVSGFSLTGYSVIWVRQSPGKGLEWLGMIWGDGRTEYKSALKSRLSITKDNSKSQVFLKMNSLQTDDTARYFCASDSMDPGSFAYWGQGTLVTVSA
VL: DVVMTQTHKFMSTSVGDRVSITCKASQDVSGAVAWYQQKSGQSPKLLISMASQRYTGVPDRFTGSGSGTDFTFTISSVQAEDLAVYYCQQHYAIPLTFGAGTKLELK
notes: 12 mutations relative to scFv492.1; not shown: scFv linker and domain order; yeast display fusion partner and cMyc tag (pETCON)
Turning to B3, the equilibrium dissociation constant (Kd) in the experiment with biotinylated MmQSOX1Trx amounted to 65 nM.

For the origin of these results see US20180273639A1 (YEDA RESEARCH AND DEVELOPMENT, published 2018).
